Consider two substances from patent US10800834B2, “HER-1, HER-3 and IGF-1R compositions and uses thereof” (OHIO STATE INNOVATION FOUNDATION, priority 2013, dated 2020).

Experiment [1] relates to A549 lung cancer cells. Briefly: BALB/c SCID transplantable lung tumor model. Type of experiment: in vivo, mouse. More on the design: tumor growth and development: dose or concentration left out as unconfirmed. As to the method:
BALB/c SCID mice 5 to 6 weeks old were s.c. injected with 33106 A549 lung cancer cells, and starting from day of tumor injection, mice were treated i.v. with 200 mg each chimeric peptide or cetuximab. […] Tumor growth was measured twice weekly using vernier calipers, and at the end of the experiment, the tumors were extracted and weighed.
the inhibitory effects of the HER-1 peptide mimics and peptide vaccine Abs raised in rabbits were further analyzed in a lung cancer transplantable model using BALB/c SCID mice.

The subject of experiment [2] is JIMT-1, BxPC-3 and Caco-2 cells. Briefly: HER-1/HER-2 anti-peptide antibody combination: MTT proliferation. The class given is cell-based, human. The note with it: JIMT-1 and BxPC-3 (low HER-2 expression). The procedure:
FIG. 26 (A-C) contains graphs showing (A) the results of a MTT proliferation assay using combination treatment with HER-1 and HER-2 antibodies as inhibitors in colon (10,000/well), breast (5000/well for MCF-7 and 4000/well for JIMT-1), and pancreatic (4000/well) cancer cells in a 96-well plate; and (B & C) receptor phosphorylation as measured using human phospho-EGFR/HER-2 ELISA kits. Each inhibitor was used at a concentration of 200 μg that was determined after a dose dependent titration from 12.5 μg-200 μg.
In FIG. 26 A, the effects of combination treatment with HER-1 and HER-2 antipeptide vaccine antibodies in three different cell lines are shown: (i) JIMT-1 trastuzumab resistant breast cell line (ii) BxPC-3 pancreatic and (iii) Caco-2 colon cells. […] The results were most significant in the Caco-2 colon cells and this is because the cells express relatively high levels of HER-1 and HER-2. The BxPC-3 and JIMT-1 cells are low expressing HER-2 cell lines with normal HER-1 expression and this explains why the combination effects were less significant trastuzumab. […] FIGS. 26 (B & C) show phosphorylated levels of HER-1 and HER-2 following treatment with both HER-1 and HER-2 peptide vaccine antibodies.

As to Cetuximab [reference compound], in experiment [1] (i.v. weekly, peptide mimics or cetuximab), the “tumor growth and development” value was “significantly delayed tumor growth and development”. Moreover, the “percentage tumor weight per body mass” value in experiment [1] (peptide mimics, vaccine Abs, cetuximab) is “significant”. For trastuzumab, the anti-proliferative effects result in experiment [2] is reported as “no anti-proliferative effects”.
